From EP4821941A1, “BRAIN-TARGETING PEPTIDE, TRANSPORT CARRIER, AND METHOD FOR SCREENING PEPTIDE BINDING TO TARGET CELL” (dated 2026)

Experiments:
Cortical neurons = assay: In vivo panning of a phage display peptide library in mice, next-generation sequencing read counts (cortical neurons); settings: after third round of in vivo panning; phage library 1×10^11 cfu via tail vein; cells collected by laser capture microdissection
Whole cerebrum = assay: In vivo panning of a phage display peptide library in mice, next-generation sequencing read counts (whole cerebrum); settings: after third round of in vivo panning; phage library 1×10^11 cfu via tail vein; tissues collected five minutes after administration

CC(C)C[C@H](NC(=O)[C@@H](N)Cc1c[nH]cn1)C(=O)N[C@@H](CC(=O)O)C(=O)N[C@@H](CO)C(=O)N[C@H](C(=O)N1CCC[C@H]1C(=O)N[C@@H](Cc1c[nH]cn1)C(=O)O)[C@@H](C)O
Number of reads Cortical neurons (Cortical neurons): 247 | Number of reads Whole cerebrum (Whole cerebrum): 140

CC(C)[C@H](NC(=O)[C@@H](N)CCC(=O)O)C(=O)NCC(=O)N[C@H](C(=O)N[C@@H](C)C(=O)N[C@@H](CCCNC(=N)N)C(=O)N[C@@H](Cc1ccc(O)cc1)C(=O)O)[C@@H](C)O
Number of reads Cortical neurons (Cortical neurons): 135 | Number of reads Whole cerebrum (Whole cerebrum): 41

CC[C@H](C)[C@H](NC(=O)CNC(=O)[C@H](CO)NC(=O)[C@@H](NC(=O)[C@@H](NC(=O)[C@@H](NC(=O)[C@@H](N)CCCCN)C(C)C)[C@@H](C)O)[C@@H](C)O)C(=O)O
Number of reads Cortical neurons (Cortical neurons): 216 | Number of reads Whole cerebrum (Whole cerebrum): 23
